Test results as given in patent publication US20230346735A1, “Nutritional Composition Comprising Carnitine and Method for Treating or Preventing an Infection in a Mammal” (priority 2020, published 2023).

Legend:
ACE-1/ACE-2 ratio [1] = test: Rat plasma serum ELISA, ACE-1/ACE-2 ratio; assay type: in vivo; settings: FIG. 5C
TNF-alpha = test: Human study, serum ELISA, TNF-alpha; assay type: in vivo; settings: Group A, from BL to Wk5, p<0.05
Protocol: (§1) A human study was run with a total of 80 healthy male and female subjects ranging from 21 to 65 years of age, who were active (i.e. 30 minutes per day of moderate activity, 3 days per week) are randomized into two groups. One group was supplemented with 2 g daily of L-carnitine tartrate and one group was supplemented with a placebo matching control for a period of 5 weeks. Seventy-three subjects completed the trial and biomarker data were analyzed from the sera of the 73 completers. […]
(§2) To obtain human sera, venous blood was extracted by venipuncture of the antecubital vein using a 21-gauge syringe and collected into a 10 mL EDTA vacutainer tube (BD Vacutainer®, Becton, Dickinson and Company, Franklin Lakes, NJ) by a certified phlebotomist. […] Human ACE-1, ACE-2, TMPRSS2, Furin, CRP and TNF-alpha protein levels were assessed using commercially available ELISA kits, according the manufacturer recommendations, ACE-1 (R&D systems Inc., Minneapolis, MN, USA), ACE-2 (RayBiotech inc., Peachtree Corners, GA), TMPRSS2 (Novus Biologicals, Littleton, CO), CRP (R&D Systems Inc., Minneapolis, MN), TNF-alpha (Novus Biologicals, Littleton, CO), and Furin (Sigma Aldrich, St. Louis, MO). […]

ACE-1/ACE-2 ratio [2] = test: Human study, serum ACE-1/ACE-2 ratio; assay type: in vivo; settings: 2 g daily, 5 weeks
Protocol: as §1, §2

ACE-2 = assay type: in vivo, rat; settings: exercising rats, liver and muscle samples, 25-400 mg/kg oral, 6 weeks, FIGS. 1-4

C[N+](C)(C)C[C@H](O)CC(=O)[O-] [L-carnitine]
ACE-1/ACE-2 ratio, level lower than the control (ACE-1/ACE-2 ratio [1]; exercised rats with supplementation, serum): 60%
serum ACE-1/ACE-2 ratio (ACE-1/ACE-2 ratio [1]; exercised rats, plasma serum, ELISA): closer to the control levels
TNF-α relative percent change (TNF-alpha): -9%
ACE-1/ACE-2 ratio (ACE-1/ACE-2 ratio [2]): No changes occurred
ACE-2 levels (western blotting and mRNA fold change) (ACE-2): significant and dose dependent decrease
